# Patent US10428101B2, “Preparation of glycosphingosines” (The Regents of the University of California, priority 2013, dated 2019)
# Protein sequences, listed by entry. Tags and fused reporters are not part of them. Lines headed by an entry give the natural chain unless they say otherwise; changes in a name come on top.
# UniProt P14769: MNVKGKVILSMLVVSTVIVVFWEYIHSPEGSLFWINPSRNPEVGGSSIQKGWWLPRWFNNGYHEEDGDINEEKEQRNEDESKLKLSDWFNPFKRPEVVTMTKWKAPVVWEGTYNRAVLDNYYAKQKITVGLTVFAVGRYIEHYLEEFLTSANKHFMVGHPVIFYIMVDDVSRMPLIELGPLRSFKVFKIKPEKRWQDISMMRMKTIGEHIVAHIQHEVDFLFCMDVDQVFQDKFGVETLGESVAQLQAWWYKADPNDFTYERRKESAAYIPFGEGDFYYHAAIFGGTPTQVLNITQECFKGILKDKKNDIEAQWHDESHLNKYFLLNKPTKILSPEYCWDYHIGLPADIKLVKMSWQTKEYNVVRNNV
# Target: bovine α1-3-galactosyltransferase (α1-3GalT) (Bos taurus, UniProt P14769)
# Assay: One-pot four-enzyme α1-3-galactosylation of fluorous-tagged lactoside acceptors (EcGalK, BLUSP, PmPpA, α1-3GalT), conversion by TLC/ImageQuant
# Conditions: acceptor lactoside to Galα1-3 product; OPME galactosylation pH 7.0; assayed at 15 h; TLC and ImageQuant 5.2
row,Substance,Conversion (%)
1,LacβProNH-TEG-C8F17 [Compound 5],81 ± 8.0^[c] %
2,LacβProNH-TEG-C6F13 [Compound 7],71 ± 0.5^[c] %
3,LacβProNH-HEG-C8F17 [Compound 6],66 ± 1.0^[c] %
4,LacβProNH-HEG-C6F13 [Compound 8],69 ± 1.0^[c] %
5,LacβProNH-C8F17 [Compound 2],10 ± 0.0^[c] %
6,LacβProNH—C3F7 [Compound 4],qt.^[c]
7,LacβProNH—C6F13 [Compound 3],60 ± 0.5^[c] %

# Marks after values point to notes of the source that are not given here.
